Measurements as given in patent US11866518B2, “Bicyclic peptide ligands specific for TSLP” (BicycleTx Limited, priority 2020, dated 2024).

Target: T1, TSLP (Homo sapiens, UniProt Q969D9)
T1 sequence (Q969D9 29-159): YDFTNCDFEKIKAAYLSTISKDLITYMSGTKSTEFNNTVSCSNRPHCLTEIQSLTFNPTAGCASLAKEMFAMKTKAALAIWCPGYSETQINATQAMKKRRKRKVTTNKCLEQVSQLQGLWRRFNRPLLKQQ
Experiment: Human TSLP Surface Plasmon Resonance (SPR) binding assay
Parameters: The resulting construct spCD33-6×HN-TEV-hTSLP(29-159)-Avi; 6xHN tag with TEV site (N, cleaved yes); made in house; host or cells: Expi293F cells
Settings: biotinylated human TSLP immobilized on streptavidin chip; 20° C.; steady-state or kinetic 1:1 fit; read-out: hTSLP SPR Kd

Row | SMILES | Kd [nM]
1 | CC(=O)N[C@H]1CSCCC(=O)N2CN3CN(C2)C(=O)CCSC[C@H](NC(=O)[C@H](CC(=O)O)NC(=O)[C@H](CCC(=O)O)NC(=O)[C@H](CC(C)C)NC(=O)[C@H](Cc2cccc4ccccc24)NC(=O)[C@H](CCC(N)=O)NC1=O)C(=O)N[C@@H](Cc1c[nH]c2ccccc12)C(=O)N[C@@H](CCCNC(=N)N)C(=O)NCC(=O)N[C@@H](Cc1ccc(F)cc1)C(=O)N[C@H](C(N)=O)CSCCC3=O [Example 27, Ac-(SEQ ID NO: 25)] | 12
2 | CC(=O)N[C@H]1CSCCC(=O)N2CN3CN(C2)C(=O)CCSC[C@H](NC(=O)[C@H](CC(=O)O)NC(=O)[C@H](CCC(=O)O)NC(=O)[C@H](CC(C)C)NC(=O)[C@H](Cc2cccc4ccccc24)NC(=O)[C@H](C)NC1=O)C(=O)N[C@@H](Cc1c[nH]c2ccccc12)C(=O)N[C@@H](CCCCNC(=N)N)C(=O)NCC(=O)N[C@@H](Cc1ccc(F)cc1)C(=O)N[C@H](C(N)=O)CSCCC3=O [Example 62, Ac-(SEQ ID NO: 48)] | 63
3 | CC(=O)N[C@H]1CSCCC(=O)N2CN3CN(C2)C(=O)CCSC[C@H](NC(=O)[C@H](CC(=O)O)NC(=O)[C@H](CCC(=O)O)NC(=O)[C@H](CC(C)C)NC(=O)[C@H](Cc2c[nH]c4ccccc24)NC(=O)[C@H](C)NC1=O)C(=O)N[C@@H](Cc1cccc2ccccc12)C(=O)N[C@@H](CCCNC(=N)N)C(=O)NCC(=O)N[C@@H](Cc1ccc(F)cc1)C(=O)N[C@H](C(N)=O)CSCCC3=O [Example 66, Ac-(SEQ ID NO: 51)] | 71
4 | CC(=O)N[C@H]1CSCCC(=O)N2CN3CN(C2)C(=O)CCSC[C@H](NC(=O)[C@H](CC(=O)O)NC(=O)[C@H](CCC(=O)O)NC(=O)[C@H](CC(C)C)NC(=O)[C@H](Cc2c[nH]c4ccccc24)NC(=O)[C@@H](C)NC1=O)C(=O)N[C@@H](Cc1c[nH]c2ccccc12)C(=O)N[C@@H](CCCNC(=N)N)C(=O)NCC(=O)N[C@@H](Cc1ccc(F)cc1)C(=O)N[C@H](C(N)=O)CSCCC3=O [Example 126, Ac-(SEQ ID NO: 90)] | 310
5 | CC(=O)N[C@H]1CSCCC(=O)N2CN3CN(C2)C(=O)CCSC[C@H](NC(=O)[C@H](CC(=O)O)NC(=O)[C@H](CCC(=O)O)NC(=O)[C@H](CC(C)C)NC(=O)[C@H](Cc2c[nH]c4ccccc24)NC(=O)[C@H](CCC(N)=O)NC1=O)C(=O)N[C@@H](Cc1c[nH]c2ccccc12)C(=O)N[C@@H](CCCNC(=N)N)C(=O)NCC(=O)N[C@@H](Cc1cccc(C#N)c1)C(=O)N[C@H](C(N)=O)CSCCC3=O [Example 130, Ac-(SEQ ID NO: 91)] | 400
6 | CC(=O)N[C@H]1CSCCC(=O)N2CN3CN(C2)C(=O)CCSC[C@H](NC(=O)[C@H](CC(=O)O)NC(=O)[C@H](CCC(=O)O)NC(=O)[C@H](CC(C)C)NC(=O)[C@H](Cc2c[nH]c4ccccc24)NC(=O)[C@@H](C)NC1=O)C(=O)N[C@@H](Cc1c[nH]c2ccccc12)C(=O)N[C@@H](CCCNC(=N)N(C)C)C(=O)NCC(=O)N[C@@H](Cc1ccc(F)cc1)C(=O)N[C@H](C(N)=O)CSCCC3=O [Example 134, Ac-(SEQ ID NO: 95)] | 470
7 | CC(=O)N[C@H]1CSCCC(=O)N2CN3CN(C2)C(=O)CCSC[C@H](NC(=O)[C@H](CC(=O)O)NC(=O)[C@H](Cc2cccc(Cl)c2)NC(=O)[C@H](CC(C)C)NC(=O)[C@H](Cc2c[nH]c4ccccc24)NC(=O)[C@H](Cc2c[nH]c4ccccc24)NC1=O)C(=O)N[C@@H](Cc1c[nH]c2ccccc12)C(=O)N[C@@H](CCCNC(=N)N)C(=O)NCC(=O)N[C@@H](Cc1ccc(F)cc1)C(=O)N[C@H](C(N)=O)CSCCC3=O [Example 144, Ac-(SEQ ID NO: 103)] | 860
8 | CC(=O)N[C@H]1CSCCC(=O)N2CN3CN(C2)C(=O)CCSC[C@H](NC(=O)[C@H](CC(=O)O)NC(=O)[C@H](CCC(=O)O)NC(=O)[C@H](CC(C)C)N(C)C(=O)[C@H](Cc2c[nH]c4ccccc24)NC(=O)[C@H](CCC(N)=O)NC1=O)C(=O)N[C@@H](Cc1c[nH]c2ccccc12)C(=O)N[C@@H](CCCNC(=N)N)C(=O)NCC(=O)N[C@@H](Cc1ccc(F)cc1)C(=O)N[C@H](C(N)=O)CSCCC3=O [Example 154, Ac-(SEQ ID NO: 113)] | 2900
9 | CCC(C)C[C@@H]1NC(=O)[C@H](Cc2c[nH]c3ccccc23)NC(=O)[C@H](CCC(N)=O)NC(=O)[C@@H](NC(C)=O)CSCCC(=O)N2CN3CN(C2)C(=O)CCSC[C@H](NC(=O)[C@H](CC(=O)O)NC(=O)[C@H](CCC(=O)O)NC1=O)C(=O)N[C@@H](Cc1c[nH]c2ccccc12)C(=O)N[C@@H](CCCNC(=N)N)C(=O)NCC(=O)N[C@@H](Cc1ccc(F)cc1)C(=O)N[C@H](C(N)=O)CSCCC3=O (some centres unmarked) [Example 160, Ac-(SEQ ID NO: 118)] | 10000

Target: T1, TSLP
Experiment: Human peripheral blood mononuclear cell assay (TSLP-induced CCL17/TARC)
Type: cell-based
Parameters: host or cells: added to human PBMCs from healthy donors
Settings: human PBMCs; 10 μM peptide; 50 pM TSLP; 24 hours; read-out: CCL17 % Inhibition @ 10 μM, 50 pM TSLP
Procedure: Human peripheral blood mononuclear cells (PMBCs) were obtained from heparinized whole blood (healthy donors) by density gradient centrifugation using Lymphoprep (StemCell Technologies, Vancouver, BC) according to the manufacturers instructions. The PBMCs were washed twice with PBS containing 2 mM EDTA and 2% fetal calf serum (FCS) and reconstituted in RPMI containing 10% FCS and 2% PenStrep at a final concentration of 3 million cells/mL. This cell suspension (100 μL) was aliquoted into the wells of a 96-well flat bottom tissue culture plate. 5 μL of bicycle peptide or vehicle (0.1% DMSO in complete medium) was then added and mixed with 5 μL of TSLPvehicle (complete medium). […] The plate was incubated for 30 minutes are rt. 10 μL of this mixture was added to cells and the plate was incubated for 24 hours in a 10% CO2, humidified incubator at 37° C. The plate was centrifuged at 300×g for 5 min and the collected supernatants frozen at −20° C. for subsequent CCL17/TARC analysis.
CCL17/TARC was determined by MSD (MesoScale Discovery, Maryland, USA) according to the manufacturer's instructions.

Row | SMILES | inhibition at 10 µM [%]
10 | CC(=O)N[C@H]1CSCCC(=O)N2CN3CN(C2)C(=O)CCSC[C@H](NC(=O)[C@H](CC(=O)O)NC(=O)[C@H](CCC(=O)O)NC(=O)[C@H](CC(C)(C)C)NC(=O)[C@H](Cc2c[nH]c4ccccc24)NC(=O)[C@H](CCC(N)=O)NC1=O)C(=O)N[C@@H](Cc1c[nH]c2ccccc12)C(=O)N[C@@H](CCCNC(=N)N)C(=O)NCC(=O)N[C@@H](Cc1ccc(F)cc1)C(=O)N[C@H](C(N)=O)CSCCC3=O [Example 4, Ac-(SEQ ID NO: 4)] | 47

Same assay, conditions: read-out: CCL17 % Inhibition @ 10 μM, […] TSLP

Row | SMILES | inhibition at 10 µM [%]
11 | CC(=O)N[C@H]1CSCCC(=O)N2CN3CN(C2)C(=O)CCSC[C@H](NC(=O)[C@H](CC(=O)O)NC(=O)[C@H](CCC(=O)O)NC(=O)[C@H](CC(C)C)NC(=O)[C@H](Cc2cccc4ccccc24)NC(=O)[C@H](CCC(N)=O)NC1=O)C(=O)N[C@@H](Cc1c[nH]c2ccccc12)C(=O)N[C@@H](CCCNC(=N)N)C(=O)NCC(=O)N[C@@H](Cc1ccc(F)cc1)C(=O)N[C@H](C(N)=O)CSCCC3=O [Example 27, Ac-(SEQ ID NO: 25)] | 33
